Compounds with a hit are over-represented: about 1.9% of the library has one in this group of screens.
PDI turbidity – inhibitors of human protein disulfide isomerase; P07237; PDI insulin aggregation turbidity, A650, 90 min; inhibition, % at 10 µM; 0.052% of 350,000 active; AID 588391;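 active = mean inhibition across replicates of 30% or more, whatever share of single replicates reach that level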
PglD DTNB – inhibitors of Campylobacter jejuni PglD acetyltransferase | purified PglD enzyme, DTNB colorimetric CoA detection | 0.098% of 360,000 active | inhibition, % at 12.5 µM; in the data active = inhibition above about 16%, passing the limit was not always enough
ARNT-TACC3 inh – disrupts binding between human ARNT and TACC3 | 0.66% of 390,000 active | inhibition, % at 9.99 µM | AID 623870 | AlphaScreen His-ARNT PAS-B/GST-TACC3 binding, luminescence; TACC3 fragment carries E629A point mutation;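 active = mean inhibition of replicates at least 50% and at least half of replicates each reaching 50%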
ERp5 block – inhibitors of human ERp5 | 0.05% of 350,000 active | Q15084 | ERp5 insulin aggregation, absorbance 650 nm, 90 min | inhibition, % at 9.99 µM;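 active = mean replicate inhibition above about 25%, with every replicate also reaching it, limit read from the data, passing the limit was not always enough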
FGF22 binding – shifts melting point of recombinant human FGF22; 1.5% of 340,000 active; activity (Tm shift, normalised), % at 9.99 µM; recombinant FGF22 thermal shift, SYPRO orange fluorescence; percent of sucrose octasulfate shift, DMSO zero; Q9HCT0;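 active = mean Tm shift, scaled 0 neutral to 100 positive control, at about 1.3% or above, every replicate too, limit read from the data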
UUG fidelity – yeast start codon fidelity modulation. S. cerevisiae UUG-firefly luciferase reporter, luminescence/redox ratio. activity score, % at 18.7 µM. 0.13% of 350,000 active;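 active means replicate mean at a twofold rise or more, about +100% in these data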;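 further: firefly luciferase made from a UUG start codon reports start codon fidelity; reporter light over untreated wells divided by growth signal over untreated wells; some hits fall short of that in this replicate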
Hits are given with their value; n = inactive; x = no result given.

SMILES	PDI turbidity	PglD DTNB	ARNT-TACC3 inh	ERp5 block	FGF22 binding	UUG fidelity
Cc1cc(C(=O)COC(=O)/C=C/c2ccc(F)cc2)c(C)n1C	n	n	n	n	n	n
COCC(C)n1c(C)cc(C(=O)COC(=O)/C=C/c2cccc(F)c2)c1C (stereo not given)	n	n	n	n	43.4	n
CC(C)CC#Cc1cnc2c(c1)C(=O)N([C@H](C)CO)C[C@H](C)[C@@H](CN(C)Cc1ccccc1F)O2	x	n	n	n	n	n
COc1ccc(NC(=O)N2CCN(c3ccc([N+](=O)[O-])cc3)CC2)cc1OC	n	x	n	n	x	x
COc1ccc(NC(=O)N2CCN(c3ccc([N+](=O)[O-])cc3)CC2)cc1	n	x	n	n	43.4	x
C[C@H](CO)N1C[C@H](C)[C@@H](CN(C)CC2CC2)Oc2cc(C#C[C@@H](C)O)ccc2S1(=O)=O	x	x	x	x	x	n
Cc1ccccc1/C=N/Nc1nc2ccccc2[nH]1	n	x	n	n	n	x
C(=N\Nc1nc2ccccc2[nH]1)/c1ccccc1	n	n	n	n	n	n
C(=N\Nc1nc2ccccc2[nH]1)/C1CCCCC1	n	x	45.9	n	n	x
Cc1[nH]c2ccccc2c1/C=N/Nc1nc2ccccc2[nH]1	n	n	45.4	n	n	n
C(=N\Nc1nc2ccccc2[nH]1)/c1cccc2cccnc12	n	n	60.7	n	n	n
C[C@@H]1CCCCO[C@@H](CN(C)C(=O)c2ccncc2)[C@H](C)CN([C@H](C)CO)C(=O)c2cc(NS(=O)(=O)c3ccc(F)cc3)ccc2O1	x	n	n	n	n	n
O=C(C[C@H]1CC[C@@H](NC(=O)C2CCC2)[C@H](CO)O1)NCc1ccccc1Cl	x	n	n	n	n	n
CC(C)(C)c1ccc(C(=O)OCC(=O)N2CCC(c3ccccc3)=N2)cc1	n	n	n	n	30.1	n
CCCC[C@@H]1C=C(C(=O)O)[C@H](c2ccc(Cl)cc2)N1S(=O)(=O)c1ccc(C)cc1	n	n	n	n	n	n
Cc1ccc(S(=O)(=O)N2[C@@H](c3ccc(C#N)cc3)C(C(=O)O)=C[C@H]2CC2CCCC2)cc1	n	n	x	n	1.4	n
CCCC[C@@H]1C=C(C(=O)O)[C@H](c2ccc3c(c2)OCO3)N1S(=O)(=O)c1ccc(C)cc1	n	n	n	n	1.8	n
Cc1ccc(S(=O)(=O)N2[C@@H](c3ccc(Cl)cc3)C(C(=O)O)=C[C@H]2CC2CCCC2)cc1	n	n	n	n	n	n
CC(C)NC(=O)N1C[C@@H]2[C@H](c3ccccc31)[C@@H](CO)N2C(=O)c1ccccc1	x	n	n	n	n	n
CCc1nnc(NC(=O)c2cc([N+](=O)[O-])ccc2N2CCOCC2)s1	n	n	n	n	n	n
O=C(Nc1nc(-c2cc3ccccc3o2)cs1)c1ccc(S(=O)(=O)N2CCCC2)cc1	n	n	n	n	42.9	n
CC1CN(S(=O)(=O)c2ccc(C(=O)Nc3nc(-c4cc5ccccc5o4)cs3)cc2)CC(C)O1 (stereo not given)	n	x	n	n	43.9	x
O=C(Nc1nc(-c2ccc(-c3ccccc3)cc2)cs1)c1cc([N+](=O)[O-])ccc1N1CCOCC1	n	x	n	n	43.4	x
O=C(Nc1nc(-c2ccc(S(=O)(=O)N3CCOCC3)cc2)cs1)c1ccccc1	n	x	n	n	43.8	x
CCC(=O)N1CC2(CCN(C(=O)NC(C)C)CC2)c2c(n(C)c3cc(OC)ccc23)[C@@H]1CO	x	x	x	n	n	x
SMILES	PDI turbidity	PglD DTNB	ARNT-TACC3 inh	ERp5 block	FGF22 binding	UUG fidelity
C[C@@H]1CN([C@@H](C)CO)C(=O)c2cc(NC(=O)CCC(F)(F)F)ccc2O[C@@H](C)CCCCO[C@H]1CN(C)Cc1ccc(C(F)(F)F)cc1	x	n	n	n	n	n
COc1ccc(-c2csc(-c3cccs3)n2)c(OC)c1	n	n	n	n	n	n
COc1ccc(-c2csc(-c3ccccc3)n2)c(OC)c1	n	x	x	n	43.1	x
O=C(NNc1cccc(Cl)n1)Nc1ccc(F)cc1	n	n	n	n	43.8	n
O=C(NNc1cccc(Cl)n1)Nc1ccccc1F	n	x	n	n	n	x
CNC(=O)C[C@H]1CC[C@H]2[C@@H](COc3ccc(NC(=O)Nc4ccccc4OC)cc3C(=O)N2C)O1	x	n	n	n	n	n
O=C1CN(C(=O)/C=C/c2ccc(Cl)cc2Cl)CCN1	n	n	n	n	n	n
CN1CCCN(C(=O)/C=C/c2ccc(Cl)cc2Cl)CC1	n	x	n	n	43.8	x
C[C@H]1CN([C@@H](C)CO)C(=O)Cc2cc(NC(=O)Nc3ccc(F)cc3)ccc2O[C@H]1CN(C)CC1CC1	x	n	n	n	n	n
CCOC(=O)C1CCN(c2nc(C)cc(C)c2C#N)CC1	n	x	n	n	n	x
CCOC(=O)C1CCN(c2nc(N)c3c(N)nc(SCC(=O)O)cc3c2C#N)CC1	n	n	51.5	n	n	n
O=C(CN1CCOCC1)NCC[C@H]1CC[C@H](NC(=O)Cc2ccccn2)[C@@H](CO)O1	x	n	n	n	n	n
C[C@@H]1CNC(=O)c2c(C(=O)NCC(=O)OC(C)(C)C)ncn21	n	n	x	n	43.0	n
Cc1ccc(CNc2ccc(O)cc2)cc1	n	n	24.3	x	x	n
COCCn1c(SCC(=O)N2CCCCC2)nc2c(c1=O)SCC2	n	n	n	n	n	n
COCCn1c(SCC(=O)c2ccccc2)nc2c(c1=O)SCC2	n	n	n	n	43.0	n
CC(=O)c1ccc(NC(=O)CN2C(=O)/C(=C/C=C/c3ccccc3)SC2=S)cc1	n	n	n	n	1.4	n
O=C(O)CN1C(=O)/C(=C/C=C/c2ccccc2)SC1=S	n	x	x	n	n	x
S=C(NCCN1CCOCC1)N/N=C/c1ccccc1	n	n	n	n	x	n
Oc1ccc(/C=N/NC(=S)NCCN2CCOCC2)c(O)c1	n	x	60.3	n	n	x
C=CCc1ccc(OCC(O)CN2CCc3ccccc3C2)c(OC)c1 (stereo not given)	n	n	n	n	n	n
COc1cc(COCC(O)CN2CCc3ccccc3C2)cc(OC)c1OC (stereo not given)	n	n	x	n	43.7	n
COC(=O)C[C@H]1CC[C@H](NC(=O)Nc2ccc(C(F)(F)F)cc2)[C@@H](CO)O1	x	n	n	n	n	n
CC(Cc1ccccc1)C(=O)NCc1ccncc1 (stereo not given)	n	n	n	n	n	n
OC(Cc1ccncc1)c1ccccc1Cl (stereo not given)	n	x	n	n	43.4	x
COc1ccc(/C=C/C2=CCN(Cc3ccc(OC)cc3)CC2)cc1	n	x	n	n	43.2	x
CO[C@H]1CN(C)C(=O)c2cc(NC(=O)Nc3cccc(F)c3)ccc2OC[C@H](C)N(C(=O)C2CC2)C[C@H]1C	x	n	n	x	x	x
Cc1[nH][nH]c(=O)c1C=NCc1cccs1	n	n	n	n	n	n
Cc1[nH][nH]c(=O)c1C=NCc1cccnc1	n	n	n	n	43.6	n
COc1cc(OC)cc(C(=O)NCC(=O)OCC(=O)c2ccc3c(c2)-c2ccccc2C3)c1	n	x	n	n	44.8	x

Screens from PubChem BioAssay.
